Source: publication PMC6433232 (2019)

System: primary acute myeloid leukemia (AML) cells obtained from patients
Test: Kinase inhibitor library screening with and without NSC130362, primary AML cells
Format: cell-based, Human

CNC(=O)c1cc(Oc2ccc(NC(=O)Nc3ccc(Cl)c(C(F)(F)F)c3)cc2)ccn1 [Sorafenib]
EC50 decrease, fold (Screen N 3): 2.0 fold
